Assay results as given in US20110251188A1, “ACENAPHTHO HETEROCYCLE COMPOUNDS, CYCLODEXTRIN INCLUSION COMPOUNDS AND COMPLEXES, AND USES IN THE MANUFACTURES OF BH3 PROTEIN ANALOGUE, BCL-2 FAMILY PROTEIN INHIBITORS THEREOF” (DALIAN UNIVERSITY OF TECHNOLOGY, priority 2008, published 2011).

Assay: phase solubility experiment (solubility in water before and after cyclodextrin inclusion or complexation)
Conditions: Table 1, compound per se, before inclusion

6-(thienyl-2-methylamino)-8-oxo-8H-acenaphtho[1,2-b]pyrrole-9-carbonitrile
Solubility of compounds: 0.37 µM
